From PubChem BioAssay AID504700 (The Scripps Research Institute Molecular Screening Center, 2011) come the findings set out here.

Protein sequences, listed by entry. Tags and fused reporters are not part of them.
UniProt P31323, whole entry, looked up: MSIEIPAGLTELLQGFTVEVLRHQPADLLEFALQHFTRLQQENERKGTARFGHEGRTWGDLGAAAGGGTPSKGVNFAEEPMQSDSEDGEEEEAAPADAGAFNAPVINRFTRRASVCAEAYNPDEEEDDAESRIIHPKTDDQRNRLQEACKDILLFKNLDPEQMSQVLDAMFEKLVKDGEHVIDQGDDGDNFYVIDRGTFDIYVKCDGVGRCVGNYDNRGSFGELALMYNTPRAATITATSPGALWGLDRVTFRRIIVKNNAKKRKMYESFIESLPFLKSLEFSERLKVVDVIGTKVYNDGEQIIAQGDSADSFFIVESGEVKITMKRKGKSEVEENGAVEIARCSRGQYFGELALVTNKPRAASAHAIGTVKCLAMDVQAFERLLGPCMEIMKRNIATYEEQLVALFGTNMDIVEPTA

Molecules are shown by their SMILES. The list shows a part of the results, in another mix than the full data. Active and inactive are the calls of the source.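 How the source made its calls: active means activation above a cutoff set at the mean over all compounds plus 3 SD (cut at about 18% in these data); inactive means the rest.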

This assay deals with cAMP-dependent protein kinase catalytic subunit beta (Homo sapiens) + cAMP-dependent protein kinase type II-beta regulatory subunit (Homo sapiens) (UniProt P22694+P31323). In words: compounds dissociating PKAc from R2B subunit – biochemical, fluorescence polarization, Cy5-IP20, human, primary screen (AID 504700).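 Further: higher means more holoenzyme dissociation and a rise in polarization.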 To be noted: PKA-R2B holoenzyme dissociation, at 11.4 µM, active compounds read high, 0% DMSO only, 100% 113 µM cGMP, R2B truncated from residue 108, S112A mutant.
Turning to `Cc1cc(=O)[nH]c(N[N+](=O)[O-])n1`, the activation was inactive: -0.1%.
To `O=P1(N(CCCl)CCCl)OCCCN1CCCl` (stereo unspecified) belongs inactive: -0.41%.
Under `O=P1(N(CCCl)CCCl)Nc2ccccc2N1` stands inactive: -4.42%; under `COc1ccc2nc(NP(=O)(c3ccccc3)c3ccccc3)sc2c1`, inactive: 8.56%.
To `COc1cc(I)ccc1[As](=O)(O)O` belongs inactive: 2.79%; to `O=[N+]([O-])c1cc(Oc2ccc([N+](=O)[O-])cc2C(F)(F)F)cc([N+](=O)[O-])c1`, inactive: 3.53%.
For `COc1ccc(N/C(=N/P(=O)(N2CCOCC2)N2CCOCC2)N2CCOCC2)cc1`, the activation was inactive: -5.9%.
To `C[As](=O)(O)c1cccc(C(=O)O)c1` belongs inactive: -2.59%; to `O=[As](O)(c1ccc(O)cc1)c1ccccc1O`, inactive: -8.49%.
Under `COc1cc(C(=O)NCC2(N3CCOCC3)CCCCC2)ccc1OCC(C)C` stands inactive: -7.73%.
Under `O=[N+]([O-])c1ccc(-c2cc([N+](=O)[O-])c(O)c([N+](=O)[O-])c2)cc1` stands inactive: -20.3%.
In the case of `Cc1ccc(OP(=O)(Nc2ccc([N+](=O)[O-])cn2)Oc2ccc(C)cc2)cc1`, the activation is inactive: 2.42%.
Under `Cc1ccc2nc3c(c(C)c2c1)CC(C(Cl)Cl)S3` (stereo unspecified) stands inactive: -9.14%; under `ClCCSc1nnc(-c2cccnc2)o1`, inactive: -7.25%.
For the compound `CC(C)c1ccc(OP(=O)(Nc2ccccn2)Oc2ccccc2F)cc1` (stereo unspecified), the activation is inactive: 2.21%.
Under `COC(=O)C1(C)COP(=O)(N2CCCCCC2)OC1` (stereo unspecified) stands inactive: 11.4%; under `CCN(CC)C(=S)SC(NC=O)C(Cl)(Cl)Cl` (stereo unspecified), inactive: 7.9%.
For `O=C(OC1CN2CCC1CC2)c1cccc2[nH]cnc12` (stereo unspecified), the activation was inactive: -3.2%.
Under `O=[N+]([O-])c1cc([N+](=O)[O-])c(-c2ccn[nH]2)s1` stands inactive: 3.4%; under `CCOP1(=S)c2c(C)nn(CCC#N)c2N=C(c2ccccc2F)N1C` (stereo unspecified), inactive: -15.2%; under `O=P(Nc1nccs1)(c1ccccc1)c1nc2ccccc2s1` (stereo unspecified), inactive: -2.82%.
As to `O=P(Nc1nccs1)(Oc1ccccc1)Oc1ccccc1`, the activation was inactive: 0.97%.
Consider `CS(=O)(=O)c1cc([N+](=O)[O-])c2no[n+]([O-])c2c1`, for which the activation was inactive: -6.42%.
To `Nc1ccccc1[As](=O)(O)c1ccccc1` belongs inactive: 9.16%; to `O=C(O)COc1ccc([As](=O)(O)O)cc1[N+](=O)[O-]`, inactive: 4.14%.
On to `NC(=O)Nc1ccc([As](=O)(O)O)cc1`, for which the activation is inactive: 8.33%.
`N#CCCN(C(=O)COC(=O)C(O)(c1ccccc1)c1ccccc1)c1ccc(F)cc1`: the activation is inactive: 4.37%.
Take `CN(C(=O)Cc1ccccc1)[C@@H]1CC[C@]2(CCCO2)C[C@H]1N1CCCC1`: the activation was inactive: 0.9%.
To `CCOP1(=S)c2c(C)nn(CCC#N)c2N=C(c2ccc(F)cc2)N1C` (stereo unspecified) belongs inactive: -7.1%; to `CN(C)C(=O)c1cc([N+](=O)[O-])cc2c1-c1c(cc([N+](=O)[O-])cc1[N+](=O)[O-])C2=O`, inactive: -2.12%.
To `O=[N+]([O-])c1ccc2c(c1)nnn2O` belongs inactive: -3.91%; to `CN(C(=O)Cc1ccc(Cl)c(Cl)c1)[C@H]1CC[C@@]2(CCCO2)C[C@@H]1N1CCCC1`, inactive: 5.05%.
Under `O=C(OC1CN2CCC1CC2)c1ccc(Cl)cc1` (stereo unspecified) stands inactive: 2.87%; under `COc1cc(C(=O)NCC2(N3CCOCC3)CCCCC2)cc(Cl)c1OC(C)C`, inactive: -13.7%.
Regarding `O=[As](O)(O)c1cccnc1`, the activation was inactive: -2.24%.
Consider `CS(=O)(=O)c1ccc(Cl)c(NC(=O)COC(=O)C(O)(c2ccccc2)c2ccccc2)c1`, for which the activation is inactive: 2.33%.
Under `O=[As](O)(c1cccc(O)c1)c1cccc(O)c1` stands inactive: -2.56%; under `Cc1cccc(OCC(=O)OC2CN3CCC2CC3)c1` (stereo unspecified), inactive: -3.69%; under `Cc1ccc(NCCc2c([N+](=O)[O-])cc([N+](=O)[O-])cc2[N+](=O)[O-])cc1`, inactive: -3.55%.
Turning to `Nc1cccc2c([As](=O)(O)O)cccc12`, the activation is inactive: -0.49%.
For `CCCOP(=S)(Nc1nc(N)cc(=O)[nH]1)OCCC`, the activation was inactive: -2.47%.
Take `COc1cc(C2NCCC3(OCCO3)C2(C)C)cc(OC)c1OC` (stereo unspecified): the activation was inactive: -13.1%.
Under `CCOP(=O)(Nc1cccc2ccccc12)OCC` stands inactive: 6.2%; under `O=P1(Nc2ccccn2)COc2ccccc2OC1`, inactive: -7.74%.
For `CCC1=CC2Cc3nc4ccc(Cl)cc4c(N)c3C(C1)C2` (stereo unspecified), the activation was inactive: -2.8%.
To `CCOP(=O)(NC(=NC(C)c1ccccc1)NC(C)c1ccccc1)OCC` (stereo unspecified) belongs inactive: 9.06%; to `CCOP(=O)(Nc1ccc(C)cn1)OCC`, inactive: 2.28%; to `O=P1(N(CCCl)CCCl)NCCC(C(F)(F)F)O1` (stereo unspecified), inactive: 2.94%.
Under `Clc1n[nH]nc1-c1nn[nH][15n]1` stands inactive: -2.75%; under `CC(C)(C)C(=O)NC(Sc1ncccn1)C(Cl)(Cl)Cl` (stereo unspecified), inactive: 0.52%.
Turning to `COc1ccccc1CNC(=O)COC(=O)C(O)(c1ccccc1)c1ccccc1`, the activation is inactive: -5.19%.
Consider `CC(C)/C=N\N=C(\N)N[N+](=O)[O-]`, for which the activation was inactive: -2.82%.
In the case of `CN(C(=O)Cc1ccc(Cl)c(Cl)c1)[C@@H]1CCCC[C@H]1N1CCCC1`, the activation is inactive: 3.25%.
`CC1(CBr)Cn2c(nc3ccccc3c2=O)S1` (stereo unspecified): the activation is inactive: -4.01%.
Under `Cc1nn(-c2ccccc2)c2c1P(=O)(N1CCOCC1)N(C)C(c1ccccc1)=N2` (stereo unspecified) stands inactive: -1.81%; under `CC1CCC(C(C)C)C(OP(=O)(Nc2ccccn2)c2ccccc2)C1` (stereo unspecified), inactive: -2.28%.
Consider `Cc1ccc(C(=O)OC2CN3CCC2CC3)cc1` (stereo unspecified), for which the activation was inactive: -6.1%.
For `CN(C)C1(CNC(=O)c2ccc(S(C)(=O)=O)cc2)CCCCC1`, the activation is inactive: -5.4%.
For `O=C(/C=C/c1ccccc1)OC1CN2CCC1CC2` (stereo unspecified), the activation was inactive: -12%.
Under `CCCC1OP(=O)(Nc2ccccc2)OCC1CC` (stereo unspecified) stands inactive: -5.91%; under `O=P1(Nc2ncccn2)COc2ccccc2OC1`, inactive: -5.87%; under `Nc1cccc([As](=O)(O)c2ccccc2)c1`, inactive: -16.3%.
Under `O=P1(Nc2ccc(Br)cn2)COc2ccccc2OC1` stands inactive: -2.49%; under `NS(=O)(=O)c1cccc(NC(=O)COC(=O)C(O)(c2ccccc2)c2ccccc2)c1`, inactive: -1.24%.
As to `Cc1ccc(OCC(=O)OC2CN3CCC2CC3)cc1` (stereo unspecified), the activation was inactive: 0.02%.
On to `O=[As](O)(c1cccs1)c1cccs1`, for which the activation was inactive: -2.12%.
